Molecular target: T1, tissue factor extracellular domains (human, UniProt P13726 33-251)
T1 construct: extracellular domain; also called TF; purified tissue factor
Assay: SPR, antibody captured by anti-human Fc, antigen as analyte; lower end of the observed KD range of the WT control

The chains behind the UniProt entries cited, without tags or fusion partners. Residues count along the entry.
UniProt P13726, 33-251: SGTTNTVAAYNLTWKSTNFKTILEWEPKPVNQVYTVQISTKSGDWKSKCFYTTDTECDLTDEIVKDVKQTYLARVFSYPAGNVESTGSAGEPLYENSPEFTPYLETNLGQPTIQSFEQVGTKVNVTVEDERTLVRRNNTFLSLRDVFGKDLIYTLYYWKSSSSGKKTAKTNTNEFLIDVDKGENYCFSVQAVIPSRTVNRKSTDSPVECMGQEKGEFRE

- Kd: 40 to 76 pM
B1: D3H44 homodimeric Mab control (WT) (antibody, V domains shown)
VH: EVQLVESGGGLVQPGGSLRLSCAASGFNIKEYYMHWVRQAPGKGLEWVGLIDPEQGNTIYDPKFQDRATISADNSKNTAYLQMNSLRAEDTAVYYCARDTAAYFDYWGQGTLVTVSS
VL: DIQMTQSPSSLSASVGDRVTITCRASRDIKSYLNWYQQKPGKAPKVLIYYATSLAEGVPSRFSGSGSGTDYTLTISSLQPEDFATYYCLQHGESPWTFGQGTKVEIKR
notes: also called Homodimeric Mab (WT) D3H44
